# Literature values in US20230073449A1, “STROMA-FREE T CELL DIFFERENTIATION FROM HUMAN PLURIPOTENT STEM CELLS” (THE CHILDREN'S MEDICAL CENTER CORPORATION, priority 2020, published 2023).
# Amino acid sequences for entries named in this document (tags omitted). A change or cut given only in a name is not applied to a line headed by its entry.
# UniProt P26358: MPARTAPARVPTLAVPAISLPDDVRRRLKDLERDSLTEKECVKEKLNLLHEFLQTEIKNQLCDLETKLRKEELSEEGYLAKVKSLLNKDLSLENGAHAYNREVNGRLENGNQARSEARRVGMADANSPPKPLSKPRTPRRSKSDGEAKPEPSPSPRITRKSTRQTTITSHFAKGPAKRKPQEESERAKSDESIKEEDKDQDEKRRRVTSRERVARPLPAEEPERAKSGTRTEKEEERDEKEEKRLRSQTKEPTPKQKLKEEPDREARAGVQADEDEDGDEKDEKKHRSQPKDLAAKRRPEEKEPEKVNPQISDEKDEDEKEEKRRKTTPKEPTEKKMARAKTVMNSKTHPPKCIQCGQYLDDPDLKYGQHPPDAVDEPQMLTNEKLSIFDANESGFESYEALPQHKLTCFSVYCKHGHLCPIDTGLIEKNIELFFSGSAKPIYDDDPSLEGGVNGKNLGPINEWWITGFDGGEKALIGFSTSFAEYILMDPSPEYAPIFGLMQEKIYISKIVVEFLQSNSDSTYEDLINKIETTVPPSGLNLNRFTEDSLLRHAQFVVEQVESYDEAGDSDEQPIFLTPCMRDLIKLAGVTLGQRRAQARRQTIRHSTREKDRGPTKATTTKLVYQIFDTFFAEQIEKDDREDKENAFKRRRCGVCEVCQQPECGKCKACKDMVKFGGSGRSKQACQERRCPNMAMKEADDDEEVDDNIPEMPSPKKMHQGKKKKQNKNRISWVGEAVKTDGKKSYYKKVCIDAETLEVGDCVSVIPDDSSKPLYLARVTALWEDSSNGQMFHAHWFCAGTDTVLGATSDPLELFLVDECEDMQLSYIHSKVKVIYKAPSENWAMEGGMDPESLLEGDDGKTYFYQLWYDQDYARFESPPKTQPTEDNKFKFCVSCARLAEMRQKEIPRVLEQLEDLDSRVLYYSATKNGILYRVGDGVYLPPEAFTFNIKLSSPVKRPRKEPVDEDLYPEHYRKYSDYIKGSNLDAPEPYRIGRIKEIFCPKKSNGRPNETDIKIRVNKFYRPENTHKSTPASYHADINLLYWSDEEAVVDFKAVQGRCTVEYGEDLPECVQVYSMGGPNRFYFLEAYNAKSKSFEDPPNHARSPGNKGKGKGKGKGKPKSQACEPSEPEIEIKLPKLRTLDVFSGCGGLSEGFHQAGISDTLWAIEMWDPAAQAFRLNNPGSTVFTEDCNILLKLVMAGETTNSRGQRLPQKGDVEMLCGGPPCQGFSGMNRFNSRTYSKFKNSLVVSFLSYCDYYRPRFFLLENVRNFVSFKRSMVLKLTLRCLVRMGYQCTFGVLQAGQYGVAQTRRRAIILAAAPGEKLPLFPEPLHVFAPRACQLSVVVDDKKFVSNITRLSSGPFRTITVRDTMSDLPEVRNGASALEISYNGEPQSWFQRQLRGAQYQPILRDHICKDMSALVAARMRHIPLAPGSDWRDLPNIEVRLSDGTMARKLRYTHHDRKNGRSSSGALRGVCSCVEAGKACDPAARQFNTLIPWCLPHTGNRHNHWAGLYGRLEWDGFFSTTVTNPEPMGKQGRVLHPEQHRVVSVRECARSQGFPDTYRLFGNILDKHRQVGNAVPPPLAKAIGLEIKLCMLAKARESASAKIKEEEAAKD
# UniProt O43463: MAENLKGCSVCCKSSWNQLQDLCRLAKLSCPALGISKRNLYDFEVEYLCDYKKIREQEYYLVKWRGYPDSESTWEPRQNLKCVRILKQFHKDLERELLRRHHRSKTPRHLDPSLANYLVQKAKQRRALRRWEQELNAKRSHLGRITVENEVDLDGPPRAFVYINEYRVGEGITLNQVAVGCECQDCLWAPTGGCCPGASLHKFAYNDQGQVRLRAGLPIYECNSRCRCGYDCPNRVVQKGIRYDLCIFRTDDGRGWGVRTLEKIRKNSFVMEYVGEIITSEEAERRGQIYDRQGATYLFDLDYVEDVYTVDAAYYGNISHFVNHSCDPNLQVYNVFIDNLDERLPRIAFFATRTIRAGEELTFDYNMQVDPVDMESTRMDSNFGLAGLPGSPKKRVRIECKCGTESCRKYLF
# Key:
# NDMT1 = NDMT1 (Homo sapiens, UniProt P26358); conditions: up to a concentration of 40 μM; cited from earlier work
# G9a = target: T1, G9a (Homo sapiens, UniProt Q96KQ7); conditions: cited from earlier work
# T1 sequence (Q96KQ7 1-1210): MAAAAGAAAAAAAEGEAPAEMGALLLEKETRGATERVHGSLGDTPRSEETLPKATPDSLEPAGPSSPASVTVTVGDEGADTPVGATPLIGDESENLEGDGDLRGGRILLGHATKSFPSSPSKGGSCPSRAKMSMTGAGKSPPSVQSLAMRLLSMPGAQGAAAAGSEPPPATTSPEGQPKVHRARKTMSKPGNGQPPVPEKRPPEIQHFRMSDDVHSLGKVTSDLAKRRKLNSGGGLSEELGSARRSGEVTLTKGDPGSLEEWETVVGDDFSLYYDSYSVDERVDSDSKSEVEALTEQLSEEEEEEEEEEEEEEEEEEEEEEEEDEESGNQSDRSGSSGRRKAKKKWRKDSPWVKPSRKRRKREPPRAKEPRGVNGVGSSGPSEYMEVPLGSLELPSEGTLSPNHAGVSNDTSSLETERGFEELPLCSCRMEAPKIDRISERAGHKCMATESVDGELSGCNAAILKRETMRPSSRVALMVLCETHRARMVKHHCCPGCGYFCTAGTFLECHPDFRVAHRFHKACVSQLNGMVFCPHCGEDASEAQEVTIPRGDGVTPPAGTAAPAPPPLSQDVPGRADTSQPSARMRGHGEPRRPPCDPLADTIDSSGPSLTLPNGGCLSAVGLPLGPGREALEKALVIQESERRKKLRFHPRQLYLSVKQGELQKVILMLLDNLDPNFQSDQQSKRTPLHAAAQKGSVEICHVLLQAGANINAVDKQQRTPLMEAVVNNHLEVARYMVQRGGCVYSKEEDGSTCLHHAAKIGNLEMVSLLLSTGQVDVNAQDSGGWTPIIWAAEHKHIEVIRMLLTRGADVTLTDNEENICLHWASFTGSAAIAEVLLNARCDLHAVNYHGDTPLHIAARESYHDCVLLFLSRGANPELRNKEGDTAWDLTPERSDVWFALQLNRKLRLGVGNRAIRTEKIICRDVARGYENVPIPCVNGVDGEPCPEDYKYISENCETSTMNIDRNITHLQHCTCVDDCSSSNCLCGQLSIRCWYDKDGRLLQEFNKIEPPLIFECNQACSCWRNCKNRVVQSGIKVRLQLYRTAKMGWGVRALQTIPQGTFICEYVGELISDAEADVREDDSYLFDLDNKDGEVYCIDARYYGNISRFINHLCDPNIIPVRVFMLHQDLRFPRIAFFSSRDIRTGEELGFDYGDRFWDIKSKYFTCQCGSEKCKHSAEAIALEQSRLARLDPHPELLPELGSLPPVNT
# SU39H1 = SU39H1 (Homo sapiens, UniProt O43463); conditions: up to a concentration of 40 μM; cited from earlier work
smiles,measurement,setting,value
O=C(O)c1ccc2c(c1)nc(NC(=O)c1ccccc1)n2CCCc1ccccc1 [BRD9539],selectivity for G9a and PRC2 over NDMT1,NDMT1,selective
same,potency relative to BRD4770,G9a,is more potent than
same,selectivity for G9a and PRC2 over SU39H1,SU39H1,selective
